# Apparent affinities of Ab-14 variants for a coronavirus HR2 peptide

All variants were tested on one target, the spike HR2 peptide PDVDLGDISGINAS (SARS-CoV-2).

Parent scFv Ab-14: VH joined to VL by the linker GGGGSGGGGSGGGGS. Changes lie in the heavy chain CDRs alone.
VH: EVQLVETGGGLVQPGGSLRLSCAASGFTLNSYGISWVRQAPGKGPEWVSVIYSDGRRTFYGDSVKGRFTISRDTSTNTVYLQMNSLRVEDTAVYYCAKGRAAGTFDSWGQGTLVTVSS
VL: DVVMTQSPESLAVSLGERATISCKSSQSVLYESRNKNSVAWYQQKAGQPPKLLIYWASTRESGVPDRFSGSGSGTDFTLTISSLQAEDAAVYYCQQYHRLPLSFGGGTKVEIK

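Designed CDR sequences, proposed from the first random library and measured here. Group labels follow the data file (Rand: our label for a block that the file lists under HC and that is probably the random mutants of the ten best first-round binders; En: ensemble of fine-tuned language models; HC: hill climbing; Gen: genetic algorithm; Gibbs: Gibbs sampling; a sequence that several methods proposed may carry one label only). The assay is AlphaSeq: two haploid yeast populations carry antibody and antigen on their surface. After mating in shaken culture at 30 °C for 16 h, diploids were selected and their barcode pairs sequenced. Scores were corrected for input abundance and mapped to Kd with protein pairs of known affinity run in the same pool. There are six technical replicates.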

Each variant is given by its three heavy chain CDRs, as the data file delimits them; those of the parent are GFTLNSYGIS, VIYSDGRRTFYGDSVK, GRAAGTFDS.
Variants here have more than six changes.
Numbers give log10(Kd / nM), so 0 is 1 nM and 3 is 1 µM. Smaller is tighter.
"nd" means that the variant was in the library but no mating with the target was seen in that replicate; the authors take this as a sign of poor binding, and no number exists.

CDR-H1,CDR-H2,CDR-H3,group,"replicates, log10 nM",signal with controls
GFDLNEYGIS,VIYADGQRTFYADSVK,GQNAGTFDI,En_Gen,0.06 / -0.46 / -0.39 / -0.33 / -0.61 / -0.63,0/18
GNTLNEYGIS,VIYADGIRKQYSDNVK,GMNTDTFDQ,En_Gibbs,nd / nd / nd / nd / nd / nd,0/18
GFEIQEYGIS,VIYADGFRTAYAESVK,GNMGGTFST,En_Gibbs,1.14 / 0.52 / 0.12 / 0.40 / 0.34 / 0.47,1/18 (1.83)
GFSLDEYGIS,VIYADGVRTEYSKNVK,GQVDFKLRG,En_Gibbs,nd / nd / nd / nd / nd / nd,0/18
GFDLNEYGIS,VIYADGRRTAYADSVK,GKVAGTFNV,En_HC,-1.36 / -0.91 / -1.09 / -0.88 / -1.42 / -0.96,0/18
GKDLGEYGIS,VIYADGKRTAYVENVK,GTFGGTLLD,En_Gibbs,nd / nd / nd / nd / nd / nd,0/18
GFKLDEYGIS,VIYADGLRMHYANSVK,GEMAGTFTT,En_Gibbs,-0.06 / 0.05 / -0.33 / -0.15 / 0.41 / 0.02,0/18
GFTLCQYGIS,VIYSIGRQTFYSDSVK,GRAYSFFDS,Rand,nd / nd / nd / nd / nd / nd,0/18
GFDLNEYGIS,VIYADGRRTFYKDSVK,GESAGTFDQ,En_HC,-0.28 / -0.42 / -0.60 / -0.40 / -0.59 / -0.20,1/18 (1.67)
GFGLDEYGIS,VIFADGQRKYYADNVK,GHFGEDGVV,En_Gibbs,nd / nd / nd / nd / nd / nd,0/18
GFNLEEYGIS,VIYADGKRTFYTDAVK,GTWGVFGLG,En_Gibbs,nd / nd / nd / nd / nd / nd,0/18
GFDLNEYGIS,VIYADGMRTAYVDNVK,GNNAGTFDV,En_Gen,-0.85 / -1.46 / -1.13 / -1.45 / -0.29 / -1.41,0/18
GFDLNEYGVS,VIYADGHRTQYSDKVK,GSESASIQN,En_Gibbs,nd / nd / nd / nd / nd / nd,0/18
GFDLNEYGIS,VIYADGRRTYYSDSVK,GEVGGTFDV,En_HC,-0.44 / 0.30 / -0.36 / 0.01 / -0.08 / -0.19,0/18
GFDLNEYGIS,VIYADGRRTFYADSVK,GEIAGTFDV,En_HC,-0.06 / 0.28 / -0.43 / -0.51 / 0.56 / 0.03,0/18
GFDLNEYGIS,VIYADGSRTAYADSVK,GNNAGTFDI,En_Gen,-0.98 / -0.91 / -1.01 / -1.52 / -0.92 / -0.53,0/18
GFVLNEYGIS,VIYADGMRTAYAEDFK,GVTGVNLHI,En_Gibbs,nd / nd / nd / nd / nd / nd,0/18
GFDLDEYGIS,VIYADGSRTAYIDSVK,GNVAGTFDV,En_Gen,-0.21 / -0.10 / -0.06 / -0.11 / -0.13 / -0.16,0/18
GFDLDEYGIS,VIYADGRRTAYADSVK,GNQAGTFDL,En_Gen,-0.55 / -0.42 / -1.14 / -0.57 / -0.52 / -0.62,0/18
GFDLDEYGIS,VIYADGKRQAYADSVK,GNVAGTFDV,En_Gen,-0.41 / -0.20 / -0.54 / -0.68 / -0.66 / -0.31,0/18
GFELNEYGIS,VIYADGRRTFYTDSVK,GTNAGTFDM,En_HC,-0.09 / -0.44 / -0.29 / -0.53 / -0.40 / -0.10,0/18
GFDLNEYGIS,VIYADGQRTAYADDVK,GENAGTFDV,En_Gen,-0.12 / 0.08 / -0.30 / -0.46 / -0.26 / 0.24,0/18
GFDLDEYGIS,VIYADGMRTAYADSVK,GNQAGTFDQ,En_Gen,nd / nd / 1.18 / nd / nd / 1.78,0/18
GFDLNEYGIS,VIYADGMRTQYVDSVK,GNVAGTFDV,En_HC,-0.58 / -0.94 / -0.84 / -0.78 / -0.90 / -0.55,1/18 (1.74)
GFNLKEYGIS,VIYADGVRAQYAESVK,GIYSSKFGM,En_Gibbs,0.99 / 0.51 / 0.49 / 0.24 / 1.06 / 0.66,0/18
GFDINEYGIS,VIYADGRRTAYADSVK,GEVAGTFDV,En_HC,0.14 / 0.01 / -0.64 / -0.84 / -0.94 / -0.52,0/18
GFTLNDYGIS,VIYSLGRRTAYQDSRK,GRAALTFIS,Rand,nd / nd / nd / nd / nd / nd,0/18
GFDLDEYGIS,VIYADGQRTAYADSVK,GTNAGTFDQ,En_Gen,-0.84 / -0.29 / -0.22 / -0.11 / -1.10 / 0.15,0/18
GFNLSEYGIS,VIYADGMRSNYADSVK,GHSGNFFID,En_Gibbs,nd / nd / nd / nd / nd / nd,2/18 (2.92)
GFDLNEYGIS,VIYADGQRTAYTDSVK,GENAGTFDV,En_Gen,-1.12 / 0.17 / -0.69 / -0.90 / -0.87 / -0.92,0/18
GFDLNEYGIS,VIYADGSRKAYADSVK,GQNAGTFDV,En_Gen,-0.12 / 0.57 / 0.55 / -0.20 / 0.24 / -0.02,0/18
GFDLNEYGIS,VIYADGMRTAYVDDVK,GGNAGTFDV,En_Gen,nd / 0.27 / 0.22 / 1.22 / 0.61 / nd,0/18
GFDLNEYGIS,VIYADGLRTSYLDSVK,GQLAGTFDQ,En_HC,0.65 / 0.46 / 0.37 / 0.16 / 0.33 / 0.05,0/18
GFDLNEYGIS,VIYADGRRTFYSDSVK,GQEAGTFDV,En_HC,-0.48 / -0.70 / -0.69 / -0.61 / -0.75 / -0.59,0/18
GFDLNEYGIS,VIYADGQRTFYADSVK,GENAGTFDI,En_Gen,-0.18 / -0.10 / -0.64 / -0.55 / -0.34 / 0.42,1/18 (1.52)

The 3 strongest on average among those seen in every replicate, once more:

{"CDR-H1": "GFDLNEYGIS", "CDR-H2": "VIYADGRRTAYADSVK", "CDR-H3": "GKVAGTFNV", "group": "En_HC", "replicates, log10 nM": "-1.36 / -0.91 / -1.09 / -0.88 / -1.42 / -0.96", "signal with controls": "0/18"}
{"CDR-H1": "GFDLNEYGIS", "CDR-H2": "VIYADGMRTAYVDNVK", "CDR-H3": "GNNAGTFDV", "group": "En_Gen", "replicates, log10 nM": "-0.85 / -1.46 / -1.13 / -1.45 / -0.29 / -1.41", "signal with controls": "0/18"}
{"CDR-H1": "GFDLNEYGIS", "CDR-H2": "VIYADGSRTAYADSVK", "CDR-H3": "GNNAGTFDI", "group": "En_Gen", "replicates, log10 nM": "-0.98 / -0.91 / -1.01 / -1.52 / -0.92 / -0.53", "signal with controls": "0/18"}

The authors' rule: three or more of the six replicates give a measured affinity, fewer mean a poor binder.
Values of this round are not directly comparable with the first-round values of the same sequences.
Empty control strains, which show no peptide, gave a signal in 1% of pairings with all heavy chain designs; the median was 2.08 and 95% of these signals were weaker than 0.84. No background was subtracted. The control count says in how many pairings with the empty strains this scFv gave a signal, with their mean in brackets.

The measurements come from Li et al. 2023 (doi:10.1038/s41467-023-39022-2) through the FLAb antibody collection.